From US20040072882A1 (priority 2002, published 2004) come the findings set out here.

The data set in a line: Toxicity monitoring in the patient study. The format is in vivo, human. As to conditions: patients, intravenous infusion. The source says:
In order to ensure that toxic limits are not exceeded, the effects of the administration on the subject are monitored. Possible effects include neurological impairment(s), which may manifest itself as cognitive/perceptual abnormalities, numbness in the limbs, difficulty in walking, dizziness, and the like. […] Other side effects may include nausea and vomiting, fatigue, rash, alopecia, and alteration in vital signs such as orthostatic hypotension.
H1/H2 blockers were given orally to the subjects 30-60 minutes prior to infusion to prevent any adverse reactions to the CREMOPHOR® in the composition. […] Thus, a dosage of 9 mg/m^2 required about 10-15 minutes of infusing, while a dose of 150 mg/m^2 required 3-4 hours of dosing. The patients were monitored by testing CBC with differential weekly, various laboratory tests every three weeks, and physical exams including neurological assessment every three weeks. Tumor assessments were made every six weeks.
Other neurological effects included transient motor neuropathy (unsteadiness, ataxia, and dizziness), muscle twitching, and sensory neuropathy occurring as tingling with occasional numbness generally in the fingers and toes. Still other toxicities included fatigue, nausea and vomiting, diarrhea, and constipation.

Turning to `C/C1=C/C[C@@H](/C(C)=C/c2csc(C)n2)OC(=O)C[C@H](O)C(C)(C)C(=O)[C@H](C)[C@@H](O)[C@@H](C)CCC1` [epothilone D, Desoxyepothilone B], the dose-limiting toxicity result is reported as “primarily neurological”.
